Data: article PMC7064328, “Evaluation of Maternal, Embryo, and Placental Effects in CD-1 Mice following Gestational Exposure to Perfluorooctanoic Acid (PFOA) or Hexafluoropropylene Oxide Dimer Acid (HFPO-DA or GenX)” (Environmental Health Perspectives, 2020)

System: Pregnant CD-1 mice
Experiment: Clinical chemistry of dam serum and urine
Assay type: in vivo, mouse (CD-1)
Details: 10 mg/kg/d
Experimental: Dam livers, kidneys, and placentas were trimmed and embedded by the NIEHS Mouse Embryo Phenotyping Core. Tissues collected at necropsy were fixed in 4% PFA for 72 h and paraffin embedded, and 5-μm sections were prepared and stained with hematoxylin and eosin (H&E). Pathology was evaluated and a pathology review conducted by S.A.E. Diplomate American College of Veterinary Pathologists (DACVP). Pathology reviews were conducted as an informed approach analysis [e.g., nonblinded analysis; see Sills et al. ([2019])]. Select tissue slides were scanned using the AT2 Scanner (Aperio). Images were then captured for publication using the ImageScope software; version 12.3.0.5056 (Aperio). Serum and urine obtained from dams in Block 2 were analyzed using the AU480 clinical chemistry analyzer (Beckman Coulter Inc.). Reagents and calibration standards used to measure alkaline phosphatase (ALP), alanine aminotransferase (ALT), aspartate aminotransferase (AST), blood urea nitrogen (BUN), serum creatinine, urine creatinine, glucose (Glu), total protein (TP), triglyceride (Trig), high-density lipoprotein (HDL), cholesterol (Chol), and albumin (ALB) were purchased from Beckman Coulter Inc. Reagents for sorbitol dehydrogenase (SDH), total bile acid (TBA), and micro-TP were purchased from Sekisui Diagnostics. The reagent used to measure low-density lipoprotein (LDL) was purchased form Diazyme Laboratories.

Structure (SMILES): N.O=C(O)C(F)(OC(F)(F)C(F)(F)C(F)(F)F)C(F)(F)F (centres unmarked) [GenX, ammonium 2,3,3,3-tetrafluoro-2-(heptafluoropropoxy)propanoate]
- Serum Glu lower relative to controls (E11.5, p=0.20): 18%
- ALT increase relative to controls (Table 2 (E11.5), not statistically significant): 200%
